{"source": "patent US6803379B2", "about": "“PHARMACOLOGICAL AGENTS AND METHODS OF TREATMENT THAT INACTIVATE PATHOGENIC PROKARYOTIC AND EUKARYOTIC CELLS AND VIRUSES BY ATTACKING HIGHLY CONSERVED DOMAINS IN STRUCTURAL METALLOPROTEIN AND METALLOENZYME TARGETS” (priority 2002, dated 2004)", "tested_on": "panel of 60 different cancer cell lines", "assay": "NIH screening assay, panel of 60 cancer cell lines"}
{"compound": "O=C(O)c1cccs1", "note": "[2-TH acid, 2-thiophenecarboxylic acid]", "values": [{"measurement": "inhibition of cancer cell lines", "result": "can inhibit a panel of 60 different cancer cell lines"}]}
